Test results taken from ChEMBL document CHEMBL1156930 (J Med Chem, 2010).

Target: T1, Galanin receptor type 2 (Homo sapiens) (UniProt O43603)
T1 sequence (whole entry): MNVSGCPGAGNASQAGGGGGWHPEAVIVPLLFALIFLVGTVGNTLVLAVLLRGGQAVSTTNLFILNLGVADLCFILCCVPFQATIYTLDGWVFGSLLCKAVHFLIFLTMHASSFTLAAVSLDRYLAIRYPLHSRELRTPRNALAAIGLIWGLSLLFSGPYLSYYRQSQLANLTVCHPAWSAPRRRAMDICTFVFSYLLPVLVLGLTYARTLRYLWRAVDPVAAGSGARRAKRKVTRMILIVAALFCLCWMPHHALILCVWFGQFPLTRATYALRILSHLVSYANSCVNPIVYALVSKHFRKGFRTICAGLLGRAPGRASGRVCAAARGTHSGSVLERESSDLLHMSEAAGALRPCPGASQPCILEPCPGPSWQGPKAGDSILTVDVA
Type: functional, cell-based
Conditions: CHO-K1, 1.25 uM

Work on `CCCCCCCCCCCCCCCC(=O)NCCCC[C@H](NC(=O)[C@H](CCCCN)NC(=O)[C@H](CCCCN)NC(=O)[C@@H]1CCCN1C(=O)CNC(=O)[C@H](CC(C)C)NC(=O)[C@H](CC(C)C)NC(=O)[C@H](Cc1ccc(O)cc1)NC(=O)CNC(=O)[C@H](C)NC(=O)[C@H](CO)NC(=O)[C@H](CC(N)=O)NC(=O)[C@H](CC(C)C)NC(=O)[C@@H](NC(=O)[C@H](Cc1c[nH]c2ccccc12)NC)[C@@H](C)O)C(=O)N[C@@H](CCCCN)C(N)=O` yielded an Activity of 26%.
